Experimental data: patent US20230144608

Legend:
[1] = tested on: IVGRPRHQGV (SEQ ID NO: 7)
[2] = tested on: APAGLIVPYN (SEQ ID NO: 5)

Cathepsin B was tested, and the initial rate of cleavage by recombinant protease (TQKPLGLS (SEQ ID NO: 4)) was 0.3 µM/h, the initial rate of cleavage by recombinant protease (RPLALWRS (SEQ ID NO: 3)) was 0.3 µM/h and the initial rate of cleavage by recombinant protease [1] was 1.9 µM/h. The initial rate of cleavage by recombinant protease [2] was 1 µM/h, the initial rate of cleavage by recombinant protease (PVSLRSGS (SEQ ID NO: 1)) was 0 µM/h and the initial rate of cleavage by recombinant protease (PANLVAPDP (SEQ ID NO: 6)) was 0 µM/h. For the same substance, the initial rate of cleavage by recombinant protease (RSKYLATA (SEQ ID NO: 8)) was 1.9 µM/h.
